High-throughput results from PubChem BioAssay.
S100A4 MyoIIA: blocks human S100A4 binding to myosin IIA peptide; AID 652163; P26447; actives 0.14% (n = 360,000); S100A4/TAMRA-MyoIIA peptide fluorescence polarization; inhibition, % at 10.7 µM;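 active = mean inhibition of at least 70% across replicates, with every replicate also reaching that level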
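assay system = human S100A4 monomer with TAMRA-labelled myosin IIA peptide | also added = labelled myosin peptide probe, 5 nM | incubation = 5 min between mix addition and reading | control set = DMSO and TFP controls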
Yeast UUG start: modulators of yeast start codon fidelity, primary screen, whole organism, S. cerevisiae, single point, plate reader | activity score, % at 18.7 µM | 350,000 tested, 0.13% active | S. cerevisiae UUG-firefly luciferase reporter, luminescence/redox ratio;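 active means replicate mean at a twofold rise or more, about +100% in these data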;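 further: firefly luciferase made from a UUG start codon reports start codon fidelity; reporter light over untreated wells divided by growth signal over untreated wells; some hits fall short of that in this replicate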
ARNT TACC3 PPI: disruptors of human ARNT/TACC3 interaction | AlphaScreen His-ARNT PAS-B/GST-TACC3 binding, luminescence; TACC3 fragment carries E629A point mutation | actives 0.66% (n = 390,000) | inhibition, % at 9.99 µM;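 active = mean inhibition of replicates at least 50% and at least half of replicates each reaching 50%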;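 also: 0% = complete ARNT plus TACC3 wells and 100% = ARNT alone without TACC3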
MLL AF4-AF9 inh: blocks AF4 peptide binding to human AF9. AlphaScreen, biotin-AF4 peptide binding to FLAG-AF9. P42568. actives 0.47% (n = 350,000). inhibition, % at 10 µM;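 active = every replicate reaching a set inhibition limit, whatever the replicate mean, cut at about 25% in these data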;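 also: 0% = plate neutral control median and 100% = total signal loss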
E-sel inducer: induces E-selectin expression in human endothelial cells; actives 0.37% (n = 260,000); P16581; HUVEC E-selectin immunofluorescence imaging; normalized: neutral wells 0, TNF-alpha wells 100; activation, % at 7.58 µM;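 active = mean E-selectin-positive cell signal at least 10% of the positive control, reached in at least 60% of replicates, without over 20% cell loss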
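Read-out: % PE-positive cells | Test system: HUVEC | Doses: One compound dose added by pin transfer | Buffer or medium: EGM-2 over gelatin coat | Signal: Immunofluorescence imaging | Benchmarks: TNF-alpha, DMSO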
ERAP1 HTS inh: blocks human ERAP1 aminopeptidase activity. inhibition, % at 10.7 µM. actives 0.15% (n = 340,000). recombinant ERAP1, Leu-AMC fluorescence, 60 min;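 active = mean replicate inhibition of at least 30%, or all replicates individually reaching that 30% level; inactive = mean below 30% and not every replicate reaching it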;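 also: 0% = neutral control wells and 100% = L-leucinethiol positive control wells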
* marks the source's active call; other numbers are inactive results. An excerpt weighted towards active compounds, which were near 1.3% of everything screened.

COc1ccc(S(=O)(=O)N[C@@H]2CC[C@H](CCn3cc(-c4ccccc4F)nn3)O[C@@H]2CO)cc1 was read as S100A4 MyoIIA 1, Yeast UUG start -12, ARNT TACC3 PPI -3, MLL AF4-AF9 inh 0, E-sel inducer 0 and ERAP1 HTS inh -1.
Screening CN(C)C(=O)c1ccc(-c2ccc([C@H]3[C@H]4CN(S(C)(=O)=O)CCCCN4[C@H]3CO)cc2)cc1 returned S100A4 MyoIIA 2, Yeast UUG start 9, ARNT TACC3 PPI -4, MLL AF4-AF9 inh 34*, E-sel inducer 1 and ERAP1 HTS inh 2.
`CN(C)C(=O)c1ccc(-c2ccc([C@@H]3[C@@H](CO)N4CCCCN(S(C)(=O)=O)C[C@H]34)cc2)cc1` gave S100A4 MyoIIA 8, Yeast UUG start -6, ARNT TACC3 PPI -20, MLL AF4-AF9 inh 30*, E-sel inducer 0 and ERAP1 HTS inh -1.
Screening CS(=O)(=O)N1CCCCN2[C@H](CO)[C@@H](c3ccc(C4=CCCC4)cc3)[C@H]2C1 returned Yeast UUG start -6, ARNT TACC3 PPI 3, MLL AF4-AF9 inh 28* and E-sel inducer 0.
For C[C@H](CO)N1C[C@H](C)[C@H](CN(C)S(C)(=O)=O)Oc2ccc(NC(=O)CCC(F)(F)F)cc2CC1=O the results were S100A4 MyoIIA 6, Yeast UUG start 5, ARNT TACC3 PPI 4, MLL AF4-AF9 inh -1, E-sel inducer -8 and ERAP1 HTS inh 2.
`C[C@@H]1CN([C@@H](C)CO)S(=O)(=O)c2ccc(-c3ccncc3)cc2O[C@H]1CN(C)C(=O)c1cccc(F)c1` gave S100A4 MyoIIA 1, Yeast UUG start 6, MLL AF4-AF9 inh 2, E-sel inducer 0 and ERAP1 HTS inh -2.
Screening O=C(O)c1ccc(NC2=C/C(=N/S(=O)(=O)c3cccs3)c3ccccc3C2=O)cc1 returned S100A4 MyoIIA 12, Yeast UUG start -32, MLL AF4-AF9 inh 13, E-sel inducer 0 and ERAP1 HTS inh 8.
`O=C1C(Nc2ccc(O)cc2)=C/C(=N/S(=O)(=O)c2cccs2)c2ccccc21` gave S100A4 MyoIIA 4, ARNT TACC3 PPI 67*, MLL AF4-AF9 inh 63* and ERAP1 HTS inh 0.
COc1ccc(N=Nc2c(C)[nH]c3ccccc23)cc1 was read as S100A4 MyoIIA 3, Yeast UUG start -5, ARNT TACC3 PPI 9 and MLL AF4-AF9 inh 26*.
For O=C([C@@H]1[C@@H](CO)[C@@H]2Cn3c(cccc3=O)[C@H]1N2C(=O)c1ccc(F)cc1)N1CCCCC1 the results were S100A4 MyoIIA 22, ARNT TACC3 PPI 2, MLL AF4-AF9 inh 0, E-sel inducer 0 and ERAP1 HTS inh -1.
`CN1/C(=C/C=C/c2n(C)c3cc([N+](=O)[O-])c([N+](=O)[O-])cc3[n+]2C)C(C)(C)c2ccccc21` gave S100A4 MyoIIA -6, Yeast UUG start 64, MLL AF4-AF9 inh 55*, E-sel inducer 3 and ERAP1 HTS inh 12.
`Cc1cccc[n+]1CC(=O)/C=C1\N(C)c2ccccc2C1(C)C` gave S100A4 MyoIIA -92, Yeast UUG start -14, ARNT TACC3 PPI -7, MLL AF4-AF9 inh -2 and ERAP1 HTS inh 15.

Among those listed so far, these have four or more nitrogen atoms:
COc1ccc(S(=O)(=O)N[C@@H]2CC[C@H](CCn3cc(-c4ccccc4F)nn3)O[C@@H]2CO)cc1 was read as S100A4 MyoIIA 1, Yeast UUG start -12, ARNT TACC3 PPI -3, MLL AF4-AF9 inh 0, E-sel inducer 0 and ERAP1 HTS inh -1.
`CN1/C(=C/C=C/c2n(C)c3cc([N+](=O)[O-])c([N+](=O)[O-])cc3[n+]2C)C(C)(C)c2ccccc21` gave S100A4 MyoIIA -6, Yeast UUG start 64, MLL AF4-AF9 inh 55*, E-sel inducer 3 and ERAP1 HTS inh 12.

Two entries picked at random from the list so far, as already listed:
For C[C@H](CO)N1C[C@H](C)[C@H](CN(C)S(C)(=O)=O)Oc2ccc(NC(=O)CCC(F)(F)F)cc2CC1=O the results were S100A4 MyoIIA 6, Yeast UUG start 5, ARNT TACC3 PPI 4, MLL AF4-AF9 inh -1, E-sel inducer -8 and ERAP1 HTS inh 2.
Screening O=C(O)c1ccc(NC2=C/C(=N/S(=O)(=O)c3cccs3)c3ccccc3C2=O)cc1 returned S100A4 MyoIIA 12, Yeast UUG start -32, MLL AF4-AF9 inh 13, E-sel inducer 0 and ERAP1 HTS inh 8.

Next part:
For O=C(c1ccccc1)N1CC[C@@H]2[C@@H](CO)Nc3ccc(C#Cc4cccnc4)cc3[C@@H]21 the results were S100A4 MyoIIA 0, Yeast UUG start -11, ARNT TACC3 PPI -2, MLL AF4-AF9 inh 3, E-sel inducer 1 and ERAP1 HTS inh -3.
Screening CCOC(=O)/C(N=Nc1c(C)n(C)n(-c2ccccc2)c1=O)=C(\C)O returned ARNT TACC3 PPI 72*.
Cc1c(N=NC2=C(O)CC(C)(C)CC2=O)c(=O)n(-c2ccccc2)n1C was read as S100A4 MyoIIA -6, ARNT TACC3 PPI 61*, MLL AF4-AF9 inh -6, E-sel inducer 0 and ERAP1 HTS inh -5.
For C[C@@H]1CN([C@H](C)CO)C(=O)c2cccc(NS(=O)(=O)c3cccs3)c2O[C@@H]1CN(C)S(=O)(=O)c1ccccc1 the results were S100A4 MyoIIA -16, Yeast UUG start -8, ARNT TACC3 PPI 3, MLL AF4-AF9 inh -4, E-sel inducer 0 and ERAP1 HTS inh 0.
Screening Cc1ccc(S(=O)(=O)N[C@H]2C=C[C@H](CC(=O)N3CCN(c4ccccc4)CC3)O[C@@H]2CO)cc1 returned S100A4 MyoIIA 8, Yeast UUG start -1, MLL AF4-AF9 inh 0, E-sel inducer 0 and ERAP1 HTS inh -1.
Screening CC(C)C#Cc1ccc([C@H]2[C@@H](C#N)N(C(=O)C3CC3)[C@@H]2CO)cc1 returned S100A4 MyoIIA 4, Yeast UUG start 0, ARNT TACC3 PPI -17, MLL AF4-AF9 inh -1, E-sel inducer 0 and ERAP1 HTS inh 3.
Screening O=C(NC1CCCC1)c1cc2c(ccc3ccccc32)o1 returned Yeast UUG start -3 and ARNT TACC3 PPI 6.
`CNC(=O)c1cc2c(ccc3ccccc32)o1` gave S100A4 MyoIIA 9, ARNT TACC3 PPI -2, MLL AF4-AF9 inh 4, E-sel inducer 78* and ERAP1 HTS inh 0.
Screening O=C1CN(c2nc3ccccc3n3cnnc23)CC(=O)N1CCc1ccccc1 returned S100A4 MyoIIA -15, Yeast UUG start -14, ARNT TACC3 PPI -31, MLL AF4-AF9 inh 25*, E-sel inducer 1 and ERAP1 HTS inh 0.
c1ccc2c(c1)nc(N1CCCCCC1)c1nncn12 was read as S100A4 MyoIIA -1, Yeast UUG start -13, MLL AF4-AF9 inh 3, E-sel inducer 0 and ERAP1 HTS inh 3.
`COCc1cc(C)nc(SCc2ccccc2)c1C#N` gave S100A4 MyoIIA -4, Yeast UUG start -8, ARNT TACC3 PPI -4, MLL AF4-AF9 inh -4 and E-sel inducer 0.
For COCc1cc(C)nc(Sc2nc3c(c(=O)n(C)c(=O)n3C)n2C)c1C#N the results were S100A4 MyoIIA 3, Yeast UUG start -11, ARNT TACC3 PPI -9, MLL AF4-AF9 inh -3, E-sel inducer 0 and ERAP1 HTS inh 31*.
O=C(COc1ccc(S(=O)(=O)N2CCCCC2)cc1Cl)N1CCCC1 was read as S100A4 MyoIIA 2, Yeast UUG start 1, ARNT TACC3 PPI -2, MLL AF4-AF9 inh -2 and ERAP1 HTS inh 0.
Screening O=C(COc1ccc(S(=O)(=O)N2CCOCC2)cc1Cl)N1CCCC1 returned S100A4 MyoIIA -1, Yeast UUG start -5, ARNT TACC3 PPI -5, MLL AF4-AF9 inh 42*, E-sel inducer 0 and ERAP1 HTS inh -7.
Screening CCCc1sc(N/N=C/c2ccccn2)nc1-c1ccc(Br)cc1 returned S100A4 MyoIIA 0, Yeast UUG start -3, ARNT TACC3 PPI 33*, MLL AF4-AF9 inh -22 and ERAP1 HTS inh 0.
For O=C(O)/C=C/C(=O)Nc1ccc(C(=O)c2ccccc2)cc1 the results were S100A4 MyoIIA 3, ARNT TACC3 PPI 2, MLL AF4-AF9 inh 1, E-sel inducer 0 and ERAP1 HTS inh -5.
